Data from paper PMC5577515, “Peptide‐Directed Binding for the Discovery of Modulators of α‐Helix‐Mediated Protein–Protein Interactions: Proof‐of‐Concept Studies with the Apoptosis Regulator Mcl‐1” (Angewandte Chemie (International Ed. in English), 2017).

Amino acid sequences for entries named in this document (tags omitted). A change or cut given only in a name is not applied to a line headed by its entry. Residues count along the entry.
UniProt P10415: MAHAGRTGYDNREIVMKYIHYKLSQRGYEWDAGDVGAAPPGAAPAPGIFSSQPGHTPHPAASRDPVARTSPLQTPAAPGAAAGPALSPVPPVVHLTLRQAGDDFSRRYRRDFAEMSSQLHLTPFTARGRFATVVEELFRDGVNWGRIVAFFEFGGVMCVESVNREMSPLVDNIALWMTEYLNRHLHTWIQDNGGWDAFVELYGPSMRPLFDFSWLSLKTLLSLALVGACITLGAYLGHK
UniProt P97287, 152-189 limits assumed: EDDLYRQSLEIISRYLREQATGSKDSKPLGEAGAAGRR
UniProt Q07820, 209-327 limits assumed: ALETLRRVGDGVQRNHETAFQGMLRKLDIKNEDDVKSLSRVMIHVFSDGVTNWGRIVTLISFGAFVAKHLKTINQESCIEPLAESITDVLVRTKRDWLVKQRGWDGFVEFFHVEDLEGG

Columns and labels:
Bcl-2 = molecular target: T1, Bcl-2 (Homo sapiens, UniProt P10415, DEL35-91/INS34DVEENRTEAPEGTESE); test: Competitive FA assay, FITC-Bid displacement from Bcl-2; type: binding
T1 construct: The Bcl-2 protein used in our study has the same construction as that used in the work of Fesik; purchased Dundee Cell Product Ltd
Procedure: For binding each well contained 10 µL of Bcl -2 protein in 10-fold dilutions (0.90 pM to 9.0 µM) […]
were dissolved in PBS: 0.05% Tween -20 buffer at pH 7.4. Reagents were incubated for 30 min at room temperature prior to reading. Bubbles were removed and 8 data points were generated.
Figure S 3: Fluorescence Anisotropy direct titration. […] Normalized […]
(1 picture or pasted object on this page, not shown here)

Mcl-1 = molecular target: T2, Mcl-1 (UniProt P97287+Q07820); test: Competitive fluorescence anisotropy (FA) assay, FITC-NoxaB displacement from Mcl-1; type: binding
T2 construct: amino acid residues 152-189 of mouse Mcl-1 fused with amino acid residues 209-327 of; 8 x His (N); TEV site (N); made in house; host or cells: E. coli BL21(DE3)pLysS
Procedure: Fmoc, 9-fluorenylmethylcarbony. IC50 determined by non -linear regression of at least three experiments.
4. Fluorescence Anisotropy Binding Assay
Fluorescence anisotropy was carried out on a BMG Labtech clariostar microplate reader with a fluorescence anisotropy optic measuring at 482/530 nm. Low -binding, Corning 96 -well black plates were used and all reagents used in the assay were biological grade and purchased from Sigma Aldrich and Novabioche m. All solutions were made using MilliQ water .
Anisotropy values were automatically calculated using the following formula […]
Where r = anisotropy, l a = parallel emission light, lb = perpendicular emission light and I = total […]
KD was determined using GraphPad Prism Version 6.0 software, using the One Site – Total binding […]
Where Bmax is the maximum specific binding, KD is the equilibrium binding constant, and NS is the slope of nonspecific binding. […]
IC50 was determined using GraphPad Prism Version 6.0 software, using a four-parameter logistic model, according to precedent from Ottmann and co-workers.[5] Errors are the transformed greater extreme of the standard error. […]
protein were dissolved in PBS: 0.05% Tween -20 buffer at pH 7.4. Reagents were incubated for 30 min at room temperature prior to reading. […]
Figure S 1: Fluorescence Anisotropy direct titration. […]

| Structure (SMILES) | IC50 (Bcl-2) | IC50 (Mcl-1) |
| --- | --- | --- |
| CC1(C)CCC(c2ccc(Cl)cc2)=C(CN2CCN(c3ccc(C(=O)NS(=O)(=O)c4ccc(N[C@H](CCN5CCOCC5)CSc5ccccc5)c(S(=O)(=O)C(F)(F)F)c4)cc3)CC2)C1 [ABT-263, reference compound] | 349 nM | – |
| CC[C@H](C)[C@H](NC(=O)[C@H](CCCNC(=N)N)NC(=O)[C@H](CCCNC(=N)N)NC(=O)[C@H](CC(C)C)NC(=O)[C@H](CCC(N)=O)NC(=O)[C@H](C)NC(=O)[C@H](C)NC(C)=O)C(=O)NCC(=O)N[C@@H](CC(=O)O)C(=O)N[C@@H](CCCCN)C(=O)N[C@H](C(=O)N[C@@H](CC(N)=O)C(=O)N[C@@H](CC(C)C)C(=O)N[C@@H](CCCNC(=N)N)C(=O)N[C@@H](CCC(N)=O)C(=O)N[C@@H](CCCCN)C(=O)N[C@@H](CC(C)C)C(=O)N[C@@H](CC(C)C)C(=O)N[C@@H](CC(N)=O)C(N)=O)C(C)C [NoxaB, reference compound] | – | 650 ± 130 nM |
